Assay results as given in ChEMBL document CHEMBL4842385, “Indirubin Derivatives as Dual Inhibitors Targeting Cyclin-Dependent Kinase and Histone Deacetylase for Treating Cancer” (J Med Chem, 2021).

Chains of the proteins cited; added tags and fusions are not shown. Lines headed by an entry give the natural chain unless they say otherwise; changes in a name come on top.
UniProt P56524: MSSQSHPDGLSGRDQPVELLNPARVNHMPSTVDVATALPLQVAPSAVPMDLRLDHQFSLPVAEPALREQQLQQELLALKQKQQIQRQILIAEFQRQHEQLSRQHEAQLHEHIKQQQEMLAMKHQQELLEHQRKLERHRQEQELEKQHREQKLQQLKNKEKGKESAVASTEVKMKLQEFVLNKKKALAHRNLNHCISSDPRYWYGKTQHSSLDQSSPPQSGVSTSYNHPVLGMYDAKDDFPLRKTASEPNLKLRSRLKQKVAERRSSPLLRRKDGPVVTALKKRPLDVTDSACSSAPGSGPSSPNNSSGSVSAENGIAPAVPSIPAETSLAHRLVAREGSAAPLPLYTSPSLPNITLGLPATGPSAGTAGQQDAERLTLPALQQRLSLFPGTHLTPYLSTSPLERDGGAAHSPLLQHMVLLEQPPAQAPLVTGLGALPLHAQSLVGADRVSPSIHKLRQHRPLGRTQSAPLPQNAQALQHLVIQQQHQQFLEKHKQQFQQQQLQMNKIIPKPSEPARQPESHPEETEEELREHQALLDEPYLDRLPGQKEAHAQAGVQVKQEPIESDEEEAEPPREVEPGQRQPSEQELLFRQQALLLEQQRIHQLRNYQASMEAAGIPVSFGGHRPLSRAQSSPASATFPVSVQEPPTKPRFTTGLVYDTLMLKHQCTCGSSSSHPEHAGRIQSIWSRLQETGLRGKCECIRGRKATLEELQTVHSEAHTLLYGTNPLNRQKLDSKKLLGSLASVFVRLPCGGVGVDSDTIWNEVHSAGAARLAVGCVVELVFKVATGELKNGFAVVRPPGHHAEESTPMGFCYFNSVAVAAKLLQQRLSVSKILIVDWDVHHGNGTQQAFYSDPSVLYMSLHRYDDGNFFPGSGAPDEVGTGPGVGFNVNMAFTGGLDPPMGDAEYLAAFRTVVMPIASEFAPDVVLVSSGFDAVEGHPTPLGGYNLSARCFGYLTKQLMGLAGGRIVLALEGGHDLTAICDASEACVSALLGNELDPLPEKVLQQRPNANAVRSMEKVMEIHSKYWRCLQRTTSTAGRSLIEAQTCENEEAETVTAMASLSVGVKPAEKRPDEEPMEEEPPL

Target: Histone deacetylase 4 (Homo sapiens, UniProt P56524)
Assay: Inhibition of HDAC4 (unknown origin) measured after 30 mins by fluorescence microplate reader assay

In the case of `CN1CCc2c(c3ccccc3n2Cc2ccc(C(=O)NO)cc2)C1` [TUBASTATIN A], the IC50 is reported as > 5 µM.
